The source of these data is patent US8343539B2, “Compounds that bind α5β1 integrin and methods of use” (Regents of the University of Minnesota, priority 2006, dated 2013).

By UniProt entry, the sequences of proteins in these tests, tags left out. Residues count along the entry.
UniProt P08648, 895-1049 partner limits assumed: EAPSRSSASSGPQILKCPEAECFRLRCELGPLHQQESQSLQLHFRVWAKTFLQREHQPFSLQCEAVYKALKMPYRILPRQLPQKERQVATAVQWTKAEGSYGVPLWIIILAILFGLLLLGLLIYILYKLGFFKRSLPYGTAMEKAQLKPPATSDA
UniProt P08648, 42-894 limits assumed: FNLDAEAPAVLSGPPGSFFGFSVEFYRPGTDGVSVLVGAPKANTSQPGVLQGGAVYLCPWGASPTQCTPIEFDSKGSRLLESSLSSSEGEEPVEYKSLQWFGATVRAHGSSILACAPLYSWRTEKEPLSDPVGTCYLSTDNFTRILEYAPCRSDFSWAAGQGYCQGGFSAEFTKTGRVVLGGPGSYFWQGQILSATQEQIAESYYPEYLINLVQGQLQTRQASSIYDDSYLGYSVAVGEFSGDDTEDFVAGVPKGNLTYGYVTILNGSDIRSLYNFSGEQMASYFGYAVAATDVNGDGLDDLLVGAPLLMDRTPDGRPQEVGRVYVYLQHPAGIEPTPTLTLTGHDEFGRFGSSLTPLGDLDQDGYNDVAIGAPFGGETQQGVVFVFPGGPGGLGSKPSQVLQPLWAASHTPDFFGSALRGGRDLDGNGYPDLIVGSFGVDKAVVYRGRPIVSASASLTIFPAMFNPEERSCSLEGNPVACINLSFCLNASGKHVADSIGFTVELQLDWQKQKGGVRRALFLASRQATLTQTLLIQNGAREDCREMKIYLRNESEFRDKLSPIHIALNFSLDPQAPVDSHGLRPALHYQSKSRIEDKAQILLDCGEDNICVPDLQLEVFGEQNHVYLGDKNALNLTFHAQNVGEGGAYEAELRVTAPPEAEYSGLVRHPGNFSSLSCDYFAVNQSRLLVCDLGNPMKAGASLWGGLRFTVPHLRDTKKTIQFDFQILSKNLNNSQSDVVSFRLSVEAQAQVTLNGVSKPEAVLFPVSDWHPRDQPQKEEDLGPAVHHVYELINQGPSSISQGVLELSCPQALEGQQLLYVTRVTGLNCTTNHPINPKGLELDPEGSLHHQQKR
UniProt P05106, 27-788: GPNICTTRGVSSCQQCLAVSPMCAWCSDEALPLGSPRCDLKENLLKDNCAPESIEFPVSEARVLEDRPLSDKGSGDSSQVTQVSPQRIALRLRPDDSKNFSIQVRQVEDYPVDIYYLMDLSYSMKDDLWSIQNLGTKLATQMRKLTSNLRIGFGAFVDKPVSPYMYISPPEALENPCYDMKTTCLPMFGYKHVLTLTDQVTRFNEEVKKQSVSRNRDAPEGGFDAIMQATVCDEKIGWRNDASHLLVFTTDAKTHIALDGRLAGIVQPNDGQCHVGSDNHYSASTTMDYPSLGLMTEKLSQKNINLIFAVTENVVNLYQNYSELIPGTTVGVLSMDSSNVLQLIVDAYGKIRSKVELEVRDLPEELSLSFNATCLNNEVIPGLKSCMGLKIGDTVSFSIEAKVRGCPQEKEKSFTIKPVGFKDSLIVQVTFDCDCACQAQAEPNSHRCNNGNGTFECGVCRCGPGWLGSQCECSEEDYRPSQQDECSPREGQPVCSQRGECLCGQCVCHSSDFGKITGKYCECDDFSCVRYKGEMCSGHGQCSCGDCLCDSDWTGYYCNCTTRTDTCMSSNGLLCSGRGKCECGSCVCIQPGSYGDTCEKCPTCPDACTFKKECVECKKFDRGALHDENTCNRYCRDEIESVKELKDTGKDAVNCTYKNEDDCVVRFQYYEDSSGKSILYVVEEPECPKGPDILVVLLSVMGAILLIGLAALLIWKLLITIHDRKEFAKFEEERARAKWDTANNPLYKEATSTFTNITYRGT
UniProt P06756, 891-1048 partner limits assumed: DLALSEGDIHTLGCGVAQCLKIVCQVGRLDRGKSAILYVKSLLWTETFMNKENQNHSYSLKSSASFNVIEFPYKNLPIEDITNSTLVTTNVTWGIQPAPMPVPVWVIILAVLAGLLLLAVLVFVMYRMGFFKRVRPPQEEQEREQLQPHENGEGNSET
UniProt P06756, 31-889 limits assumed: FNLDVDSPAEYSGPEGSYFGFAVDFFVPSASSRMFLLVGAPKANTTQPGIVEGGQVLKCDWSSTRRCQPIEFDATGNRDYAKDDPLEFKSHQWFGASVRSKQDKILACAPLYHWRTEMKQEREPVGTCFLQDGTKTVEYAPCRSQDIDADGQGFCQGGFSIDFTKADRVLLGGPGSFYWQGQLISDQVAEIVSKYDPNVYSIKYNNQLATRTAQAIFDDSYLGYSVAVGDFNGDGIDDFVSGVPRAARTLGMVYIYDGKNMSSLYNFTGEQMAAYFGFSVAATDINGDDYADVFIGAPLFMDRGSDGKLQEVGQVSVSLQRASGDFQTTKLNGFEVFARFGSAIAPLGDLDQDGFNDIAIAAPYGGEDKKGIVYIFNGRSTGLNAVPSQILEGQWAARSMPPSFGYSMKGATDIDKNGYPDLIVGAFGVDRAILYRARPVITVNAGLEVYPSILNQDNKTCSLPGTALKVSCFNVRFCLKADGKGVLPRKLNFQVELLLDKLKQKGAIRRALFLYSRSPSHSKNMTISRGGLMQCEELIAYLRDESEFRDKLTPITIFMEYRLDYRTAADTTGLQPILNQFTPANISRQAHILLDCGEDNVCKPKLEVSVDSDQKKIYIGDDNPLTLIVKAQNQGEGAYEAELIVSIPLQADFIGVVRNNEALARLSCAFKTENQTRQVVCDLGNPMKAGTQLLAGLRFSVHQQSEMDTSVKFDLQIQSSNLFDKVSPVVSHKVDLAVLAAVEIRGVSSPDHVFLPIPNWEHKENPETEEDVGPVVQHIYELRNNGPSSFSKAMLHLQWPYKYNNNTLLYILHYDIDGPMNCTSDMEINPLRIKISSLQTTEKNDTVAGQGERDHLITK

One test concerns the target T1, integrin β1 (Homo sapiens, UniProt P05556+P08648).
T1 construct: HUVECs were prepared and counted as described in the cell adhesion protocol; endogenous in cells; host or cells: HUVEC (human umbilical vein endothelial cells)
In words: Adhesion blocking with anti-integrin β1 antibody (P5D2). Conditions: anti-β1 antibody 20 μg/ml, 1 hour, HUVECs 249 cells/mm^2. The class given is cell-based. As for the experimental part:
(§1) Adhesion blocking experiments: Blocking experiments were done using mouse anti-human integrin […] (P1D6), β1 (P5D2), α5β1 (JBS5), and αvβ3 (LM609) monoclonal antibodies (Chemicon Int.). All surfaces were transferred to 24- or 12-well plates and pre-incubated in 0.1% BSA media as described above. HUVECs were prepared and counted as described in the cell adhesion protocol. Cells were blocked by mixing the cell suspension with the appropriate antibody in 0.1% BSA media, and incubating for 30 minutes at 37° C., 5% CO2 with constant agitation. Blocked cells were then released onto LB and FN surfaces and allowed to adhere for 1 hour at 37° C., 5% CO2. For all blocking experiments, cells were seeded at 249 cells/mm^2 (lower seeding density was used here to reduce the amount of antibodies needed to block cell adhesion) and a final antibody concentration in each well was 20 μg/ml. Following incubation, surfaces were washed, and adhered cells were quantified as described in the cell adhesion protocol.

The target of the next test is T2, integrin αvβ3 (Homo sapiens, UniProt P05106+P06756).
T2 construct: HUVECs were prepared and counted as described in the cell adhesion protocol; endogenous in cells; host or cells: HUVEC (human umbilical vein endothelial cells)
In words: Adhesion blocking with anti-integrin αvβ3 antibody (LM609). Particulars: anti-αvβ3 antibody 20 μg/ml, 1 hour, HUVECs 249 cells/mm^2. The class given is cell-based. As for the experimental part: as §1

In the case of “FN: Human fibronectin-coated round coverslips (BD Biosciences), positive control”, the “reduction in cell adhesion compared to adhesion of non-blocked cells” value in the test with integrin β1 was 73.84±8.69%; in the test with integrin αvβ3 it was 72.39±2.87%.
